The numbers were not newly measured in patent US20260232847A1, “Nanoparticles For Imaging And Treatment Of Arthritis And Inflammatory Joint Diseases” (Cornell University, priority 2023, published 2026), which cites them from elsewhere.

The conditions of this data set: in vivo.

B1: anakinra conjugated to block co-polymer nanoparticles: anakinra conjugated to block co-polymer nanoparticles (dh~270 nm), literature system (conjugate, chains of the INN, looked up)
chain: MRPSGRKSSKMQAFRIWDVNQKTFYLRNNQLVAGYLQGPNVNLEEKIDVVPIEPHALFLGIHGGKMCLSCVKSGDETRLQLEAVNITDLSENRKQDKRFAFIRSDSGPTTSFESAACPGWFLCTAMEADQPVSLTNMPDEGVMVTKFYFQEDE
modifications: block co-polymer nanoparticles
Consider B1, for which the joint half-life is given as 3 days.
